# Screens as filed in PubChem BioAssay.
# Sampled rows, rich in hits. Any-hit rate of the full collection: about 1.1%.
# p53 reactivation – re-activators of mutant p53; H1299 p53-A138V BP100-luciferase reporter, luminescence, 24 h; Potency, µM (top dose mostly 92.2 µM), without a hit: at the highest dose activity change, positive = activation, most hits filed as activators; 0.063% of 320,000 active; further: potency means the concentration at half of the fitted maximal effect; % of control where 0% means no effect; nearly all actives have a fitted effect of over 45% in size
#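 H1299 (p53-null), stable ts p53-A138V + BP100-Luc; 1000 cells/well, Opti-MEM/10% FBS; cpd 4 pt, 1:5; 24 h, 37 deg C, 5% CO2; detection reagent 10 min RT; luminescence.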
# miR-21 reporter – miR-21 reporter, rising signal | HeLa miR-21 FLuc reporter, luciferase, 48 h | Potency, µM (highest dose often 38.3 µM), for inactives: at the top dose reporter change, positive = more light | 340,000 tested, under 10 active | AID 2288; active = well fitted rising curve with a large enough effect; inconclusive = small, poorly fitted or top-dose-only effect; inactive = no such curve, though single readings can be large or run the other way;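 further: % of control where 0% means no effect; miR-21 action dims this reporter so a rising signal means less miR-21 action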
#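 HeLa cells stably expressing CMV-driven firefly luciferase with a downstream miR-21 binding sequence, endogenously expressing miR-21, were treated with titrations (up to about 40uM final) for 48 hours at 37 degree Celsius. Luciferase luminescence was read after lysis.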
# Apoferritin bind – candidate novel general anesthetic via apoferritin binding; Potency, µM (titrated, usually from 77.5 µM), for inactives: at the highest dose activity change, negative = displacement, most hits filed as inhibitors; 0.074% of 350,000 active; apoferritin/1-aminoanthracene competitive binding, fluorescence; P02791; further: potency means the concentration at half of the fitted maximal effect; on the % scale 0 is the no-effect control and ±100 the full control effect; nearly all actives have a fitted effect of over 20% in size
#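 Read-out: endpoint 1-AMA fluorescence, excitation 380 nm and emission 535 nm, after compounds sit 10 min at room temperature with 10 uM horse-spleen apoferritin in 50% saturated 1-AMA/PBS. Values come from four-parameter Hill fits.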
# BRCA1 expr act – BRCA1 expression activation; MCF7-BRCA1-FFLuc reporter, luminescence, 48 h; response scale: scaled: vehicle 0%, 10 µM genistein 100%; Potency, µM (top dose mostly 46.1 µM), for inactives: top-dose activation, most hits filed as activators; 1.1% of 380,000 active; AID 624202; further: potency means the concentration at half of the fitted maximal effect; nearly all actives have a fitted effect of over 80% in size
#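 MCF7-BRCA1-FFLuc cells, 2000/well in phenol-red-free MEM, attached 2 h then treated 48 h at 37 C. Luciferase luminescence read 15 min after reagent; normalized to genistein maximum activation (10microM) and DMSO, concentration-response fitted.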
# * marks the source's active call; other numbers are inactive results; ? = inconclusive; . = no result given; ! = repeats disagree. Unless noted, the call rests on the fitted dose curve; in most records, active means well fitted curve in the direction sought with a large enough effect; inconclusive means small, poorly fitted or top-dose-only effect, or another doubt; inactive means no such curve, though single readings can be large; an effect the other way counts as inactive or inconclusive.
No.	mol	p53 reactivation	miR-21 reporter
1	CCOC(=O)c1ccc(NC(=O)c2ccccc2)cc1	?	-41%
2	CC(=O)Nc1ccc(C(=O)OCCc2ccccc2)cc1	?	-13%
3	COc1ccc(NC(=O)C23CCC(C)(C(=O)O2)C3(C)C)cc1 (stereo unspecified)	-6%	-9%
4	COc1ccc(CC(C)N2CCN(Cc3ccccc3)CC2)cc1OC (stereo unspecified)	.	-3%
5	COCCc1nn2c(=O)cc(COC(=O)c3ccco3)nc2s1	.	-1%
6	O=C(OCc1cccc(F)c1)c1ccc2c(c1)-c1ccccc1C2=O	?	-8%
7	CCOC(=O)c1ccc(COC(=O)c2ccc3c(c2)-c2ccccc2C3=O)cc1	10%	-4%
8	O=C(OCc1ccccc1F)c1ccc2c(c1)-c1ccccc1C2=O	?	-13%
9	O=C(Cn1ccc2cc(S(=O)(=O)N3CCCCC3)ccc21)NCCc1ccc(Cl)cc1	.	15%
10	O=C(/C=C/c1ccccc1Cl)N1CCC(c2nc3ccccc3o2)CC1	.	-37%
11	COc1ccc2nc(NC(=O)CSc3nnc(-c4ccoc4C)n3C)sc2c1	?	-19%
12	CCOc1ccc(N2C(=O)c3ccccc3C2O)cc1 (stereo unspecified)	?	-43%

No.	Apoferritin bind	BRCA1 expr act
1	-2%	2.8µM*
2	-9%	5µM*
3	-2%	0%
4	-5%	-37%
5	-3%	0%
6	-12%	11µM*
7	-9%	-21%
8	-8%	7.1µM*
9	11%	.
10	0%	.
11	?	5.6µM*
12	-6%	6.3µM*

# 3 compounds from above, ordered by the value under Apoferritin bind, descending.
entry	canonical_smiles	p53 reactivation	miR-21 reporter	Apoferritin bind
1	CCOC(=O)c1ccc(NC(=O)c2ccccc2)cc1	?	-41%	-2%
4	COc1ccc(CC(C)N2CCN(Cc3ccccc3)CC2)cc1OC (stereo unspecified)	.	-3%	-5%
12	CCOc1ccc(N2C(=O)c3ccccc3C2O)cc1 (stereo unspecified)	?	-43%	-6%

# Other compounds.
No.	mol	p53 reactivation	miR-21 reporter
13	CN(C)CCN(CC1CCCN(Cc2ccccc2F)C1)C(=O)c1ccc(F)cc1 (stereo unspecified)	20µM*	0%
14	COc1ccc([C@H]2CC(=O)C=C(c3ccc(Cl)c(C(F)(F)F)c3)C2)cc1OC	-16%	.
15	Cc1ccc(S(=O)(=O)CC(=O)Nc2nc3c(C)cc(C)cc3s2)cc1	.	-2%
16	COc1ccc(CN=C2Nc3ccccc3CS2)cc1	10µM*	-42%
17	Cc1cc(OC(=O)c2cc(Br)ccc2Cl)c([N+](=O)[O-])c(=O)[nH]1	5%	0%
18	COc1ccc(C(=O)Nc2cc3c4c(c2)CC(=O)N4CCC3)cc1	2%	.
19	COc1ccc(C(=O)Nc2cc3c4c(c2)CC(=O)N4CCC3)c(OC)c1	9%	.
20	Cc1nc(C)c(-c2csc(Nc3cccc(O)c3)n2)s1	12%	1%
21	CCC(=O)Nc1nc(C)c(-c2csc(Nc3cccc(O)c3)n2)s1	28µM*	11%
22	COc1ccccc1CNC(=O)CSc1ccsc1[N+](=O)[O-]	?	-49%
23	CCOc1ccc(NC(=O)NCc2cccn2C)cc1	18%	-38%
24	Cn1cccc1CNC(=O)Nc1ccc(Cl)c(Cl)c1	22%	-25%

No.	Apoferritin bind	BRCA1 expr act
13	-8%	-7%
14	.	-44%
15	4%	.
16	?	?
17	-15%	-1%
18	.	-8%
19	.	4µM*
20	-19%	43%
21	-9%	-40%
22	-17%	13µM*
23	-12%	?
24	-23%	2.2µM*

# New compounds follow:
No.	mol	p53 reactivation	miR-21 reporter
25	COc1ccc(NC(=O)c2cccnc2)c([N+](=O)[O-])c1	22%	12%
26	CCOc1ccc(NC(=O)c2ccco2)c([N+](=O)[O-])c1	4.5µM*	-38%
27	COc1cccc(NC(=O)/C=C/c2ccccc2[N+](=O)[O-])c1	?	-58%
28	CCCOc1ccc(C(=O)Nc2ccccc2[N+](=O)[O-])cc1	.	.
29	COc1ccc(NC(=O)c2ccccc2)c([N+](=O)[O-])c1	9%	-36%
30	CCCCOc1ccc(C(=O)Nc2ccc(C)cc2[N+](=O)[O-])cc1	20%	-2%
31	CCOc1ccc(NC(=O)c2ccc(CC)s2)c([N+](=O)[O-])c1	8%	-37%
32	COc1ccccc1NC(=O)Cn1c(=O)n(CCCCCC(=O)NCc2ccccc2)c(=O)c2sccc21	.	-11%
33	O=Cc1ccc(OCc2ccc3c(c2)OCO3)cc1	.	-25%
34	Cc1cc([N+](=O)[O-])ccc1NC(=O)/C=C/c1cccs1	?	-50%
35	CC(=O)c1ccc(NC(=O)C2(c3ccccc3)CC2(Cl)Cl)cc1 (stereo unspecified)	5%	-42%
36	Cc1ccccc1NC(=O)c1cc2ccccn2n1	8%	-18%

No.	Apoferritin bind	BRCA1 expr act
25	-9%	-49%
26	-13%	?
27	-13%	3.2µM*
28	.	3.2µM*
29	-12%	7.9µM*
30	-12%	46%
31	-6%	?
32	-3%	.
33	?	2.8µM*
34	-1%	5.6µM*
35	-21%	10µM*
36	-12%	0%

# An excerpt of these results, field by field:
20. Cc1nc(C)c(-c2csc(Nc3cccc(O)c3)n2)s1
  p53 reactivation: 12%
  miR-21 reporter: 1%
  Apoferritin bind: -19%
  BRCA1 expr act: 43%

15. Cc1ccc(S(=O)(=O)CC(=O)Nc2nc3c(C)cc(C)cc3s2)cc1
  p53 reactivation: .
  miR-21 reporter: -2%
  Apoferritin bind: 4%
  BRCA1 expr act: .

28. CCCOc1ccc(C(=O)Nc2ccccc2[N+](=O)[O-])cc1
  p53 reactivation: .
  miR-21 reporter: .
  Apoferritin bind: .
  BRCA1 expr act: 3.2µM*

# Further compounds
No.	mol	p53 reactivation	miR-21 reporter
37	CC(=O)c1cccc(NC(=O)c2cnn3ccccc23)c1	?	-28%
38	CC(=O)c1cccc(NC(=O)c2cc3ccccn3n2)c1	?	-28%
39	CCCCc1c(O)nc2sc3cc(OC)ccc3n2c1=O	20%	-4%
40	Cc1ccc(-c2csc3nc(-c4ccncc4)[nH]c(=O)c23)cc1	6%	-6%
41	Cc1ccc2nc(-c3ccncc3)[nH]c2c1	17%	-44%
42	CCc1noc(C)c1C(=O)NCCc1ccccc1	?	.
43	CCOC(=O)c1c(C)c(C(=O)NCCc2ccccc2)c(C)n1C	19%	-66%
44	O=C(Nc1cccc(Cl)c1)OCC#CCCl	.	.
45	CCc1nnc(NC(=O)C23CC4CC(CC(C4)C2)C3)s1	?	-49%
46	CCOc1ccc(C(=O)Nc2ccc(-c3nc4ccccc4[nH]3)cc2)cc1[N+](=O)[O-]	4%	-31%
47	Cn1ncc([N+](=O)[O-])c1C(=O)Nc1ccc(-c2nc3ccccc3[nH]2)cc1	?	-17%
48	CC(C)c1ccc(CNc2ncccn2)cc1	0%	-53%

No.	Apoferritin bind	BRCA1 expr act
37	-7%	3.5µM*
38	-10%	2.5µM*
39	-9%	11µM*
40	-3%	27%
41	0%	2.8µM*
42	.	10µM*
43	-2%	10µM*
44	-7%	.
45	-10%	11µM*
46	-9%	3.2µM*!
47	-17%	?
48	-20%	11µM*

# Carrying on.
No.	mol	p53 reactivation	miR-21 reporter
49	C/C(=N\OCC(=O)OCC(=O)N(C)c1ccccc1)c1ccc2c(c1)OCO2	1%	.
50	Brc1ccc(-c2noc(CCc3ccccc3)n2)cc1	.	.
51	O=C(NCCc1nc(-c2ccc(F)cc2)no1)c1ccc(F)cc1	4%	.
52	c1ccc(CCc2nc(-c3cccnc3)no2)cc1	?	-45%
53	c1ccc(CCc2nc(-c3ccccc3)no2)cc1	19%	-41%
54	CCCc1nc(-c2ccc(-c3ccc(F)cc3)cc2)no1	20%	-30%
55	COc1ccc(Cc2nc(-c3ccc(-n4cccc4)cc3)no2)cc1	12%	-14%
56	COc1ccc(Cc2nc(-c3ccccc3)no2)cc1	21%	-48%
57	CN1CCN(c2oc(/C=C/c3ccc(F)cc3)nc2C#N)CC1	.	-16%
58	O=C(CCc1ccccc1)Nc1nc2c(F)cc(F)cc2s1	15%	-40%
59	CC(=O)Nc1ccc(S(=O)(=O)NC(C)c2ccccc2)cc1 (stereo unspecified)	11%	2%
60	CCCNC(=O)/C=C/c1ccc(C(C)C)cc1	?	-69%
61	Cc1ccc2c(=O)n3c(nc2c1)C(Cc1ccccc1)NC(=O)c1cc2ccccc2cc1-3 (stereo unspecified)	.	.

No.	Apoferritin bind	BRCA1 expr act
49	.	6%
50	.	53%
51	.	-12%
52	-6%	10µM*
53	-15%	13µM*
54	-12%	4µM*
55	6%	11%
56	-5%	11µM*
57	161%	.
58	-1%	10µM*
59	-4%	-5%
60	0%	13µM*
61	.	-39%
